Earlier results in patent US20110052570A1, “METHOD TO PROGNOSE RESPONSE TO ANTI-EGFR THERAPEUTICS” (CHILDREN'S MEDICAL CENTER CORPORATION, priority 2005, published 2011).

Tested on: colon cancer
Settings: colon cancer patients with scores of 0 out of a 3+ scoring system for EGFR immunoreactivity; cited from earlier work

**Q.** For “Cetuximab: monoclonal antibody against EGFR”, which patient response is on record?
**A.** The patient response was “responded”.
